Values of other authors, collected in US20040142847A1, “Detergent tablets with polyurethane coating” (priority 2002, published 2004).
Like-named read-outs stand apart in the source and are kept apart here.

Details: 25° C.

**Q.** For Magnesium perchlorate hydrate, which solubility in water (listing of preferred solubilizers) is on record?
**A.** 500 mg/mL

**Q.** What about the solubility in water (listing of suitable solubilizers) of the same substance?
**A.** 500 mg/mL
